# Assays:
# MRSA 15187 = experiment: MIC by checkerboard method; type: cell-based, Staphylococcus aureus; settings: S aureus MRSA 15187
# [1] = Subacute toxicity study, 28 days; settings: 20, 40 and 100 mg/kg for 28 days
# B cereus RRL 101 = experiment: MIC by checkerboard method; type: cell-based
# S epidermidis ATCC 12228 = experiment: MIC by checkerboard method; type: cell-based
# [2] = Safety pharmacology studies (CNS, CVS and GIT profile); settings: in vivo
# [3] = tested on: bacteria, viruses and yeast; experiment: In vitro screening in combination with anti-infective agents; type: cell-based
# MRSA 450 = experiment: MIC by checkerboard method; type: cell-based, Staphylococcus aureus; settings: S aureus MRSA 450
# [4] = tested on: Staphylococcus aureus, MRSA; experiment: Decrease in MIC in combination
# [5] = tested on: Staphylococcus aureus ATCC 29213; experiment: Systemic infection model of mice; type: in vivo, Swiss albino mice; settings: mice infected i.v. with S. aureus ATCC 29213, two doses 6 hrs apart, seven days of observation
# S aureus ATCC 29213 = experiment: MIC by checkerboard method; type: cell-based, Staphylococcus aureus
# MRSA 33 = experiment: MIC by checkerboard method; type: cell-based, Staphylococcus aureus; settings: S aureus MRSA 33
# [6] = tested on: M. tuberculosis, M. avium and M. intracellure; experiment: Decrease in MIC of rifampicin in combination; type: cell-based; settings: Mycobacterial species (Table 3)
# [7] = with compound of formula 1a 3.12 μg/ml
# [8] = with compound of formula 1a 6.25 μg/ml
# [9] = with compound of formula 1a 12.5 μg/ml
# [10] = with compound of formula 1a 25.0 μg/ml
# [11] = with compound of formula 1a 50.0 μg/ml
compound,measurement,setting,value
"CCC(/C=C/C(=O)N1CCCCC1)=C\c1ccc2c(c1)OCO2 [compound of formula 1a, 4-ethyl-5-(3,4-methylenedioxyphenyl)-2E,4E-pentadienoic acid piperidine amide]",MIC of Mupirocin,MRSA 15187; [7],0.25 µg/mL
same,MIC of Mupirocin,MRSA 15187; [8],0.25 µg/mL
same,"subacute toxicity: food/water consumption, body weight, organ weight, haematological and clinical chemistry profile",[1],No adverse effects were observed
same,MIC Ciprofloxacin,B cereus RRL 101; [8],0.12 µg/mL
same,MIC of Amikacin,B cereus RRL 101; [8],1.0 µg/mL
same,MIC Ciprofloxacin,B cereus RRL 101; [9],0.06 µg/mL
same,MIC of Amikacin,B cereus RRL 101; [9],0.25 µg/mL
same,MIC Ciprofloxacin,B cereus RRL 101; [10],0.03 µg/mL
same,MIC of Amikacin,B cereus RRL 101; [10],0.25 µg/mL
same,MIC Ciprofloxacin,B cereus RRL 101; [11],0.03 µg/mL
same,MIC of Amikacin,B cereus RRL 101; [11],0.25 µg/mL
same,MIC Ciprofloxacin,S epidermidis ATCC 12228; [8],0.12 µg/mL
same,MIC of Amikacin,S epidermidis ATCC 12228; [8],0.5 µg/mL
same,MIC Ciprofloxacin,S epidermidis ATCC 12228; [9],0.06 µg/mL
same,MIC of Amikacin,S epidermidis ATCC 12228; [9],0.5 µg/mL
same,MIC Ciprofloxacin,S epidermidis ATCC 12228; [10],0.03 µg/mL
same,MIC of Amikacin,S epidermidis ATCC 12228; [10],0.25 µg/mL
same,MIC Ciprofloxacin,S epidermidis ATCC 12228; [11],0.03 µg/mL
same,MIC of Amikacin,S epidermidis ATCC 12228; [11],0.25 µg/mL
same,"safety pharmacology (CNS, CVS and GIT profile)",[2],did not reveal any abnormality
same,potentiation/synergism when combined with various anti-infective agents in vitro,[3],potentiation/synergism
same,MIC of Mupirocin,MRSA 450; [7],0.25 µg/mL
same,MIC Ciprofloxacin,MRSA 450; [8],32 µg/mL
same,MIC of Amikacin,MRSA 450; [8],8.0 µg/mL
same,MIC of Mupirocin,MRSA 450; [8],0.25 µg/mL
same,MIC Ciprofloxacin,MRSA 450; [9],16 µg/mL
same,MIC of Amikacin,MRSA 450; [9],8.0 µg/mL
same,MIC Ciprofloxacin,MRSA 450; [10],16 µg/mL
same,MIC of Amikacin,MRSA 450; [10],4.0 µg/mL
same,MIC Ciprofloxacin,MRSA 450; [11],16 µg/mL
same,MIC of Amikacin,MRSA 450; [11],4.0 µg/mL
same,reduction in MIC of Amikacin in combination with the potentiator,[4]; Staphylococcus aureus species (Table 1),Four-fold
same,reductions in MIC of mupirocin in combination with the potentiator,[4]; bacterial species (Table-4),Two to more than four fold
same,ED50 for ciprofloxacin in combination with the potentiator,[5],5.86 mg/kg
same,MIC of Mupirocin,S aureus ATCC 29213; [7],0.12 µg/mL
same,MIC Ciprofloxacin,S aureus ATCC 29213; [8],0.12 µg/mL
same,MIC of Amikacin,S aureus ATCC 29213; [8],1.0 µg/mL
same,MIC of Mupirocin,S aureus ATCC 29213; [8],0.12 µg/mL
same,MIC Ciprofloxacin,S aureus ATCC 29213; [9],0.06 µg/mL
same,MIC of Amikacin,S aureus ATCC 29213; [9],1.0 µg/mL
same,MIC Ciprofloxacin,S aureus ATCC 29213; [10],0.06 µg/mL
same,MIC of Amikacin,S aureus ATCC 29213; [10],0.5 µg/mL
same,MIC Ciprofloxacin,S aureus ATCC 29213; [11],0.06 µg/mL
same,MIC of Amikacin,S aureus ATCC 29213; [11],0.25 µg/mL
same,MIC of Mupirocin,MRSA 33; [7],0.12 µg/mL
same,MIC Ciprofloxacin,MRSA 33; [8],32 µg/mL
same,MIC of Amikacin,MRSA 33; [8],8.0 µg/mL
same,MIC of Mupirocin,MRSA 33; [8],0.12 µg/mL
same,MIC Ciprofloxacin,MRSA 33; [9],16 µg/mL
same,MIC of Amikacin,MRSA 33; [9],8.0 µg/mL
same,MIC Ciprofloxacin,MRSA 33; [10],16 µg/mL
same,MIC of Amikacin,MRSA 33; [10],4.0 µg/mL
same,MIC Ciprofloxacin,MRSA 33; [11],16 µg/mL
same,MIC of Amikacin,MRSA 33; [11],2.0 µg/mL
same,reduction in MIC of rifampicin in combination with the potentiator,[6],Two-fold

# From patent US8580752B2, “Aromatic amides as potentiators of bioefficacy of anti-infective drugs” (priority 2005, dated 2013)
